This note sets out measurements from ChEMBL document CHEMBL3399947, “Structure activity relationship of selective GABA uptake inhibitors” (Bioorg Med Chem, 2015).

The IC50 is the concentration at which inhibition is half-maximal.

In the assay the target is Sodium- and chloride-dependent GABA transporter 1 (Mus musculus, UniProt P31648). Description: Inhibition of mouse mGAT1 expressed in HEK293 cells assessed as inhibition of [3H]GABA uptake after 3 mins incubation by TopCount microplate scintillation counting analysis. The class given is cell-based.

`COc1ccc(C(OCCN2CCC[C@H](C(=O)O)C2)(c2ccc(OC)cc2)c2ccc(OC)cc2)cc1`: the concentration for half-maximal inhibition (IC50) is more than 30 µM.
